Earlier results on one substance are cited in patent US8030306B2, “Azabicyclic heterocycles as cannabinoid receptor modulators” (Bristol-Myers Squibb Company, priority 2006, dated 2011).

The conditions of the data set: chronic administration for two weeks; cited from earlier work.

Turning to AM-251, the “body weight and adipose tissue mass” value is “substantial body weight reduction and decreased adipose tissue mass”.
